According to paper doi:10.1101/2023.12.19.572309 (bioRxiv, 2023):

Target: the molecule itself
Experiment: native gel or EMSA

B1: ATG16L1 (recombinant, within the ATG16L1-(StrepII^2x)ATG5–ATG12 complex) (natural protein)
chain: MSSGLRAADFPRWKRHISEQLRRRDRLQRQAFEEIILQYNKLLEKSDLHSVLAQKLQAEKHDVPNRHEISPGHDGTWNDNQLQEMAQLRIKHQEELTELHKKRGELAQLVIDLNNQMQRKDREMQMNEAKIAECLQTISDLETECLDLRTKLCDLERANQTLKDEYDALQITFTALEGKLRKTTEENQELVTRWMAEKAQEANRLNAENEKDSRRRQARLQKELAEAAKEPLPVEQDDDIEVIVDETSDHTEETSPVRAISRAATKRLSQPAGGLLDSITNIFGRRSVSSFPVPQDNVDTHPGSGKEVRVPATALCVFDAHDGEVNAVQFSPGSRLLATGGMDRRVKLWEVFGEKCEFKGSLSGSNAGITSIEFDSAGSYLLAASNDFASRIWTVDDYRLRHTLTGHSGKVLSAKFLLDNARIVSGSHDRTLKLWDLRSKVCIKTVFAGSSCNDIVCTEQCVMSGHFDKKIRFWDIRSESIVREMELLGKITALDLNPERTELLSCSRDDLLKVIDLRTNAIKQTFSAPGFKCGSDWTRVVFSPDGSYVAAGSAEGSLYIWSVLTGKVEKVLSKQHSSSINAVAWSPSGSHVVSVDKGCKAVLWAQY
B1 was tested, and the “stoichiometry N” value was 2.
